Assay results from US20140037798A1, “LIQUID NUTRITIONAL PRODUCTS COMPRISING METAL AMINO ACID CHELATES” (ABBOTT LABORATORIES, priority 2011, published 2014).

Settings: cocoa powder 0.80% (w/w), pH 6.8 HEPES, cocoa powder:iron 40:1, 99° C. thirty minutes, 0.45 μm filtrate

Ferric pyrophosphate [reference compound]
Absorbance, Filtrate v. Blank, 535 nm: 667 mAU
Absorbance, Filtrate v. Blank, 600 nm: 369 mAU
Absorbance, Filtrate v. Blank, 700 nm: 118 mAU
